# Binding of CDR-mutated scFvs to a peptide of the spike HR2 region

The measurements come from Li et al. 2023 (doi:10.1038/s41467-023-39022-2) through the FLAb antibody collection.

Antigen: PDVDLGDISGINAS, a 14-residue peptide of the SARS-CoV-2 spike HR2 region.

Parent: Ab-14, a human scFv built as VH, the linker GGGGSGGGGSGGGGS, VL. Only the CDRs of the heavy chain vary.
VH: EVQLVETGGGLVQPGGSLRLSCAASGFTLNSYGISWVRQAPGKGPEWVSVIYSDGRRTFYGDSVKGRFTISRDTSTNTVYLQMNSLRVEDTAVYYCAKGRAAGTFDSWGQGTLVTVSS
VL: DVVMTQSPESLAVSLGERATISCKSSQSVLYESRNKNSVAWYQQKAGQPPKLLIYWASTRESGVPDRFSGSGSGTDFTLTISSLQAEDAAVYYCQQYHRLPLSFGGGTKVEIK

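Phage display of a naive human antibody library on the peptide gave the parent. This is the validation round: designs drawn from the data on random variants, tested in the same kind of assay. Several design methods are mixed in this list. In AlphaSeq, yeast of one mating type display the scFv and yeast of the other type display the target. The frequency of each diploid, read from paired DNA barcodes, reflects how well the two displayed proteins bind. The ratio of observed to expected reads was calibrated, replicate by replicate, on BCL2-family standards whose Kd was known from biolayer interferometry. The assay was run in six technical replicates.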

Each variant is given by its three heavy chain CDRs, as the data file delimits them; those of the parent are GFTLNSYGIS, VIYSDGRRTFYGDSVK, GRAAGTFDS. This list holds designs with more than six substitutions. Affinities are written as log10 Kd with Kd in nM; a lower number is a better binder. Averages over replicates are reported, and they cover detected replicates only. Where no diploid with the target was found in that replicate, the entry reads "nd": below detection, most likely a poor binder, though not proof of it. The parent sequence was in this pool as ten entries: three were never detected, three once, and four in most replicates, with averages from 0.34 to 2.37.

Variant GFLIDEYGIS, VIYADGQRTAYADDVK, GYVGTIGGI showed nd, nd, nd, nd, nd, nd.
Variant GFDLNEYGIS, VIYADGIRTFYADSVK, GNNAGTFIQ showed nd, nd, nd, nd, 0.08, nd.
Variant GFDLEDYGIS, VIYADGRRTAYSDSVK, GENAGTFDV showed 0.96, 0.81, 1.03, 0.53, 1.24, 1.97 (mean 1.09).
Variant GFDLNEYGIS, VIYADGKRTFYTDSVK, GEFAGTFDV showed 0.16, 0.10, 0.20, 0.53, -0.04, 0.22 (mean 0.19).
Variant GFDLNEYGIS, VIYADGMRTAYADDVK, GSNAGTFDM showed -0.45, -0.24, -0.46, -0.63, -0.47, -0.39 (mean -0.44).
Variant GFDLDEYGIS, VIYADGKRTAYADNVK, GNVAGTFDQ showed 0.15, 0.77, 0.12, -0.08, -0.42, -0.23 (mean 0.05).
Variant GFDLNEYGIS, VIYADGRRTFYTDSVK, GENAGTFDM showed -0.10, -0.36, -0.11, -0.55, -0.73, -0.25 (mean -0.35).
Variant GFDLNEYGIS, VIYADGVRKAYADDVK, GNNAGTFDV showed -0.61, -0.51, -0.43, -0.42, -0.67, -0.43 (mean -0.51).
Variant GFDLNEYGIS, VIYADGKRTAYADNVK, GQVAGTFDV showed -0.52, -0.46, -0.83, -0.66, -0.85, -0.34 (mean -0.61).
Variant GFDLNEYGIS, VIYADGMRTAYSDSVK, GTVAGTFDQ showed -1.64, -1.04, 0.08, -0.52, -1.44, nd (mean -0.91).
Variant GFDIQEYGIS, VIYADGQRVAYTNSFK, GTQSGNNIN showed nd, nd, nd, nd, nd, nd.
Variant GFDLNEYGIS, VIYADGRRTQYIDSVK, GEAAGTFDL showed nd, 0.73, nd, 0.01, 1.35, 1.01 (mean 0.78).
Variant GFDLNEYGIS, VIYADGRRTAYADSVK, GQIAGTFDQ showed 0.71, 0.78, 0.17, 0.04, -0.11, 0.53 (mean 0.36).
Variant GFDLDEYGIS, VIYADGRRTYYADSVK, GNQAGTFDV showed -0.11, -0.35, -0.45, -0.71, -0.90, 0.04 (mean -0.41).
Variant GFDLNEYGIS, VIYADGTRTYYANSFK, GDYKVVNSI showed nd, nd, nd, nd, nd, nd.
Variant GFDLDEYGIS, VIYADGRRTAYTDSVK, GNVAGTFDQ showed -0.29, -0.22, -0.62, -0.53, -0.48, -0.03 (mean -0.36).
Variant GFDLNEYGIS, VIYADGKRTAYADDVK, GGNAGTFDI showed -0.40, -0.32, -0.48, -0.52, -0.67, -0.42 (mean -0.47).
Variant GFDLEDYGIS, VIYADGRRTFYSDSVK, GEVAGTFDS showed 2.17, 1.14, 1.85, 1.10, nd, 1.07 (mean 1.47).
Variant GFDLNEYGIS, VIYADGKRTAYSDSVK, GNQAGTFDT showed -0.37, 0.10, -0.31, -0.81, -0.74, -0.56 (mean -0.45).
Variant GFELNEFGIS, VIYADGMRASYRDDVK, GDISGDFML showed nd, nd, nd, nd, nd, nd.
Variant GFDLNEYGIS, VIYADGQRTFYTDSVK, GQNAGTFDV showed -0.45, -0.22, -0.39, -0.64, -0.18, -0.36 (mean -0.37).
Variant GEDLSEYGIS, VIYADGERRSYANSVK, GGVSGNFSQ showed nd, nd, 2.01, 2.01, 2.06, 2.29 (mean 2.09).
Variant GFDLNEYGIS, VIYADGIRTFYADSVK, GNAAGTFDQ showed -0.43, -0.37, -0.79, -0.46, -0.87, 0.02 (mean -0.48).
Variant GFDLNEYGIS, VIYADGMRKAYADSVK, GETAGTFDV showed -0.42, -0.65, -0.82, -0.97, -0.83, -0.50 (mean -0.70).
Variant GFDLNEYGIS, VIYADGKRTFYADSVK, GQVAGTFDQ showed -0.61, -0.70, -0.88, -1.00, -0.46, -0.39 (mean -0.67).
Variant GFDLNEYGIS, VIYADGKRTAYADNVK, GEVAGTFDM showed -0.38, 0.00, -0.52, -0.73, -0.07, 0.33 (mean -0.23).
Variant GFDLDEYGIS, VIYADGQRTAYADDVK, GENAGTFDI showed 0.00, -0.02, -0.19, -0.15, -0.17, -0.03 (mean -0.09).
Variant GFSLDEMGIS, VIYADGQRTFYQASVK, GQNSGTVFV showed nd, nd, nd, nd, nd, nd.
Variant GFDLNEYGIS, VIYADGVRTAYTDNVK, GNVAGTFDV showed -0.48, -0.25, -0.71, -0.01, -0.75, -0.40 (mean -0.43).
Variant GFNIQEYGIS, VIYADGHRTAYAEPVK, GEDGGTIDT showed 0.54, -0.76, 0.04, -0.81, 0.00, -0.16 (mean -0.19).
Variant GFNLNEYGIS, VIYADGMRTAYADSVK, GNVAGTFDV showed -0.11, -0.59, -0.70, -0.71, 0.10, 0.20 (mean -0.30).

Top 5 of the variants detected in all replicates, tightest first:

Variant GFDLNEYGIS, VIYADGMRKAYADSVK, GETAGTFDV gave -0.42, -0.65, -0.82, -0.97, -0.83, -0.50 (mean -0.70).
Variant GFDLNEYGIS, VIYADGKRTFYADSVK, GQVAGTFDQ gave -0.61, -0.70, -0.88, -1.00, -0.46, -0.39 (mean -0.67).
Variant GFDLNEYGIS, VIYADGKRTAYADNVK, GQVAGTFDV gave -0.52, -0.46, -0.83, -0.66, -0.85, -0.34 (mean -0.61).
Variant GFDLNEYGIS, VIYADGVRKAYADDVK, GNNAGTFDV gave -0.61, -0.51, -0.43, -0.42, -0.67, -0.43 (mean -0.51).
Variant GFDLNEYGIS, VIYADGIRTFYADSVK, GNAAGTFDQ gave -0.43, -0.37, -0.79, -0.46, -0.87, 0.02 (mean -0.48).

The range of this assay differs from that of the first round, and the authors advise against merging the two. As a blank, each scFv also met three strains without target: over all heavy chain designs, 1% of these pairings were detected, typically at 2.08 and seldom below 0.84. The authors' rule: three or more of the six replicates give a measured affinity, fewer mean a poor binder.